Here are results for one molecule from article PMC3860265 (Journal of molecular biology, 2013).

The chains behind the UniProt entries cited, without tags or fusion partners. Where a name states a change or a piece, a line headed by the entry shows the natural chain unless it says otherwise.
UniProt P22518: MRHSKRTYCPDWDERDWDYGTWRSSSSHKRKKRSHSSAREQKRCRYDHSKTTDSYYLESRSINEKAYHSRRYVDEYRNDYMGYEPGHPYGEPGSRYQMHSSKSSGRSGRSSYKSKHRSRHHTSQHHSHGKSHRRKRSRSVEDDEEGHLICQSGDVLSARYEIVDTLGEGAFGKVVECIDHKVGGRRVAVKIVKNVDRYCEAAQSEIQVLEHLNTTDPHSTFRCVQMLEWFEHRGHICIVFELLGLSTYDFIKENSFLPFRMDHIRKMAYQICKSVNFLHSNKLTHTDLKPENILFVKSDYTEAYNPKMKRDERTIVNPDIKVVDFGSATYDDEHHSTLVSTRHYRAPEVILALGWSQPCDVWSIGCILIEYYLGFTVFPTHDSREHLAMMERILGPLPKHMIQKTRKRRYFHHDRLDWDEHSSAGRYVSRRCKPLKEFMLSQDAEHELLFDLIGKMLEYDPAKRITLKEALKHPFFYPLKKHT

This assay deals with CLK1 (mouse, UniProt P22518 1-483). Nature of the assay: kinase competition assay.

B1: SR(RRM2) (domain or fragment)
chain: NRVVVSGLPPSGSWQDLKDHMREAGDVCYADVYRDGTGVVEFVRKEDMTYAVRKLDNTKFRSHEGETAYIRVKVD
The molecule B1 showed a Ki of 120 ± 20 nM.
